Among the data in article PMC5570423, “Structural characterisation of TNRC6A nuclear localisation signal in complex with importin-alpha” (PLoS ONE, 2017) are Kd values, retold here.

For the experiment, the target named is GST-SV40 TAg cNLS (SV40). The experiment is described as follows: ELISA; solid phase plate binding assay, no cross-linking: MaxiSorp plates coated with 25 nM GST-cNLS or GST in PBS, 0.2 mM PMSF, 2 mM DTT; serial dilutions of S-tagged mImpα1ΔIBB, 1 hr at 4°C; detected with S-protein-HRP; apparent Kd, one-site specific binding, duplicates. On the technique in general: An ELISA detects its analyte on a solid surface through an enzyme-linked reagent.

As to “Mouse importin-α1 lacking the IBB domain (mImpα1ΔIBB; residues 70–529) (from UniProt P52293 70-529) (domain or fragment)”, the Kd turned out to be 12.5 nM.
